Measurements from US12276657B2, “Detection of PAR in the CSF of patients with Parkinson's disease” (The Johns Hopkins University, priority 2017, dated 2025).

Test system: SH-SYSY cells
Test: α-syn aggregation and PARP activation in SH-SYSY cells transfected with α-syn (MNNG or PAR delivery)
Type: cell-based
Conditions: 50 μM MNNG 15 min

**Q.** With `CN(N=O)C(=N)N[N+](=O)[O-]` as the molecule, how does the “aggregation of α-syn after MNNG in PARP-1 KO cells” value (PARP-1 KO SH-SYSY cells) read?
**A.** Its value is “has no effect in PARP-1 KO SH-SYSY cells”.

**Q.** What about the “aggregation of overexpressed α-syn after MNNG” value (WT SH-SYSY cells, 6 h after) of the same molecule?
**A.** The value was “enhances the aggregation of overexpressed WT or A53T α-syn”.
